{
  "source": "ChEMBL document CHEMBL3734654",
  "about": "“Mutational mapping of the transmembrane binding site of the G-protein coupled receptor TGR5 and binding mode prediction of TGR5 agonists” (Eur J Med Chem, 2015)",
  "test_system": "T1, G-protein coupled bile acid receptor 1 (Homo sapiens), Q8TDU6 [E169A]",
  "T1 sequence (whole entry)": "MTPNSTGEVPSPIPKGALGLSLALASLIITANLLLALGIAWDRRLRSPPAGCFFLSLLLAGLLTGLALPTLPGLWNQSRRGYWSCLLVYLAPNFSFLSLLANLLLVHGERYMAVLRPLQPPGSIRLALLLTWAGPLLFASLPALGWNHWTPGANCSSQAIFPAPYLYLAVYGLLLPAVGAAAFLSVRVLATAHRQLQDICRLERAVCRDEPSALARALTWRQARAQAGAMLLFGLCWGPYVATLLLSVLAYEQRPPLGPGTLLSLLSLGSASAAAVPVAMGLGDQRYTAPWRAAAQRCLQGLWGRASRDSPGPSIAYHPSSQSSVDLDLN",
  "test": "Agonist activity at human TGR5 E169A mutant expressed in HEK293 cells assessed as rise in intracellular cAMP level at 10 uM incubated for 16 hrs by luciferase reporter assay relative to wild type",
  "format": "functional, cell-based",
  "data": [
    {"smiles": "C[C@H](CCC(=O)NCCS(=O)(=O)O)[C@H]1CC[C@H]2[C@@H]3CC[C@@H]4C[C@H](O)CC[C@]4(C)[C@H]3C[C@H](O)[C@]12C", "values": [
      {"measurement": "Activity", "value": 119, "unit": "%"}
    ]}
  ]
}
